The text below walks through data of PMC11410929, “Biochemical and crystallographic studies of L,D-transpeptidase 2 from Mycobacterium tuberculosis with its natural monomer substrate” (Communications Biology, 2024).

The experiment concerns the target DAAO and HRP. The experiment in a line: Transpeptidase interference assay (no LdtMt2, D-Ala as substrate). The format is biochemical. The settings on record: for Transpeptidase interference assay pIC50 (mean ± SD): DAAO 2 U/mL, HRP 2 U/mL, FAD 40 µM, Amplex red 10 µM, 30 min rt, then D-alanine 500 nM, pH 8.0, quadruplicate. Here is the method:
The transpeptidase interference assay was performed as described above, with the modification that the LdtMt2 mixture was replaced by 5 µL assay buffer, and the substrate was replaced by D-Ala (500 nM final concentration). Data were analysed using Prism 10 (GraphPad).
Figure S14. Dose-response curves of the transpeptidase interference assay with compounds
14-24. The specified inhibitors were incubated with DAAO (2 U/mL), HRP (2 U/mL), FAD (40 μM) and
Amplex red (10 μM) in 50 mM sodium phosphate pH 8.0 with 100 mM NaCl at room temperature for 30
minutes, after which time D-alanine (500 nM) was added. The pIC50 values and compound structures
See Methods for experimental details. Individual data points are shown.

For `NC(=O)C=CC(=O)Nc1ccc(Cl)cc1`, the “Transpeptidase interference assay pIC50 (mean ± SD)” value was under 4.0.

As for `N#Cn1c(-c2cnc(-c3cccs3)nc2)nc2ccccc21`, the “Transpeptidase interference assay pIC50 (mean ± SD)” value is under 4.0.

Regarding `O=c1c2cc(Cl)c(Cl)cc2sn1CCO`, the “Transpeptidase interference assay pIC50 (mean ± SD)” value is 5.0 ± 0.2. Also, the “Interference with the DAAO/HRP assay” value (inhibition of DAAO and HRP, in words) is on record as “cause interference”.

Regarding `O=C1C=CC(=O)N1c1ccccc1`, the “Transpeptidase interference assay pIC50 (mean ± SD)” value is under 4.0.
